# Data from ChEMBL document CHEMBL1147615, “Design and synthesis of novel small molecule N/OFQ receptor antagonists” (2004).
# Target: Nociceptin receptor (Homo sapiens, UniProt P41146)
# Assay: Binding affinity towards Nociceptin/orphanin FQ (N/OFQ) receptor from recombinant HEK293 cell membranes was determined using binding assay
smiles,measurement,value
CCn1c(=O)n([C@@H]2CCN(CC3CCCCCCC3)C[C@H]2CO)c2ccccc21,Ki,2.3 nM
